Measured values published in paper PMC10044640, “Antimicrobial Peptides Designed against the Ω-Loop of Class A β-Lactamases to Potentiate the Efficacy of β-Lactam Antibiotics” (Antibiotics, 2023).

Experiments:
[1] = system: E. coli CS109 + pBAD-SHV-14; type: cell-based, Escherichia coli; conditions: E. coli CS109 + pBAD-SHV-14 (arabinose-induced), no peptide; HT-SPOTi
[2] = system: E. coli CS109 + pBAD-SHV-14; type: cell-based, Escherichia coli; conditions: CS109 + pBAD-SHV-14, no peptide; broth microdilution, MHB, ~10^5 cells/well, OD600

Compound: CC1(C)S[C@@H]2[C@H](NC(=O)[C@H](N)c3ccc(O)cc3)C(=O)N2[C@H]1C(=O)O [Amx, Amoxicillin]
- MIC Value of Antibiotics, β-lactam alone [1]: 125 µg/mL
- MIC Value of Antibiotics, β-lactam alone [2]: 125 µg/mL

Where two headings read alike, the source gives them in different places.
